The values that follow come from patent publication US20260232825A1, “LINKER-DRUG MOLECULE AND ANTIBODY DRUG CONJUGATE, PREPARATION METHOD THEREFOR AND USE THEREOF” (SHANGHAI ESCUGEN BIOTECHNOLOGY CO., LTD., priority 2023, published 2026).

The nature of this data set: Size exclusion chromatography (SEC) analysis of the antibody-drug conjugates. Type of data set: physicochemical. To be noted: SEC purity of the antibody-drug conjugate. How it is done: Size exclusion chromatography (SEC) analysis column is Tskgel G3000SWXL (TOSOH, 0008541); mobile phase is 0.1 M PB, pH7.0, 0.1M NaCl; isocratic elution, flow rate: 1 mL/min; column temperature: 25° C. Detection wavelength is 280 nm and 366 nm, respectively. Hydrophobic interaction chromatography (HIC) analysis column is Butyl-NPR 4.6×100 mm (TOSOH, 0042168); mobile phase A is 50 mM PB, pH7.0, 1.5 M (NH4)2SO4; mobile phase B is 50 mM PB, pH7.0, 20% acetonitrile. Separation gradient: changing from 0% B to 100% B in 2-20 min, column temperature: 30° C., flow rate: 0.6 mL/min. Detection wavelength is 280 nm and 366 nm, respectively. The results are shown in Table 1 and FIG. 1-FIG. 6 (FIG. 1 comprises FIG. 1A and FIG. 1B; FIG. 2 comprises FIG. 2A and FIG. 2B; FIG. 3 comprises FIG. 3A, FIG. 3B, FIG. 3C, FIG. 3D, FIG. 3E, FIG. 3F, FIG. 3G and FIG. 3H; FIG. 4 comprises FIG. 4A and FIG. 4B; FIG. 5 comprises FIG. 5A and FIG. 5B; and FIG. 6 comprises FIG. 6A, FIG. 6B, FIG. 6C, […], FIG. 6E, FIG. 6F, FIG. 6G and […]).
For orientation: In gel filtration, larger molecules generally elute earlier.

For `CC[C@@]1(O)C(=O)OCc2c1cc1n(c2=O)Cc2c-1nc1cc(F)c(C)c3c1c2[C@@H](NC(=O)OCc1ccc(NC(=O)[C@H](C)NC(=O)[C@@H](NC(=O)[C@H](CCC(=O)O)NC(=O)CCCCCN2C(=O)C=CC2=O)C(C)C)cc1)CC3` [LD-27], the SEC % was determined as 89.22%.
